# Measurements from paper PMC11637191, “The pH-dependence of efflux ratios determined with bidirectional transport assays across cellular monolayers” (International Journal of Pharmaceutics: X, 2024).
# Tested on: MDCK-MDR1 cells
# Test: Comparison of Papp,B-A with and without inhibitor in MDCK-MDR1 cells (own and literature data)
# Conditions: calculated from literature Papp,B⟶A and Papp with inhibitor; pH 7.4 iso-method
structure (smiles),measurement,value
CC(C)CN(C[C@@H](O)[C@H](Cc1ccccc1)NC(=O)O[C@H]1CCOC1)S(=O)(=O)c1ccc(N)cc1 [Amprenavir],Factor difference,2
